## Measured affinities in a library of Ab-95 light chain variants

Values reported by Engelhart et al. 2022, doi:10.1038/s41597-022-01779-4 (FLAb copy).

The target is the same throughout: PDVDLGDISGINAS, from the HR2 region of SARS-CoV-2 spike.

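The parent was found by panning a naive human phage display library on the peptide. In library AAYL52, one, two or three CDR residues were substituted; doubles and triples were drawn at random. In AlphaSeq, yeast of one mating type display the scFv and yeast of the other type display the target. Mating (16 h, 30 °C) was followed by selection of diploids and sequencing of their barcodes. The ratio of observed to expected reads was calibrated, replicate by replicate, on BCL2-family standards whose Kd was known from biolayer interferometry. There are three technical replicates.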

Parent scFv Ab-95: VH joined to VL by a 15-residue (Gly4Ser)3 linker. Changes lie in the light chain CDRs alone.
VH: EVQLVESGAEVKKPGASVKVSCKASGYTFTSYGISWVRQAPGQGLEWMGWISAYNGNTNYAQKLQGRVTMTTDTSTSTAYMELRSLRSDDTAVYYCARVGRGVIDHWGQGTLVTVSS
VL: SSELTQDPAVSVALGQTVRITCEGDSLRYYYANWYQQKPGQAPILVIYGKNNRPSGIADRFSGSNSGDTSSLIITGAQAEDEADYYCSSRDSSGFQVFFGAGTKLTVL

The whole VL of each variant is written out. All variants listed here change D25 of the VL, counted from its first residue. Each Kd is an estimate from the mating assay, the geometric mean of the replicates in which the pair was seen; lower is stronger. A pair that was not seen in any replicate is written "nd"; this usually means weak binding, but a binder can also be missed. Background: pairings of library AAYL52 with three empty control strains gave a value in 28% of cases (median 8.2 µM, 5th percentile 800 nM). Values in that range, when seen in few replicates, are hard to tell from nonspecific mating.

The variant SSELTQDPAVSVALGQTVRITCEGWSLRYYYALWYQQKPGQAPILVIYGKNNRPSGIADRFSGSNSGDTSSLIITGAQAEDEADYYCSSMDSSGFQVFFGAGTKLTVL gave 17 µM (1 of 3 replicates). For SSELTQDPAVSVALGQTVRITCEGLSLRYYYANWYQQKPGQAPILVIYGKNNRPSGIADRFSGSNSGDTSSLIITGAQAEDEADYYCSSFDSLGFQVFFGAGTKLTVL, the assay gave 21 µM (2 of 3 replicates). With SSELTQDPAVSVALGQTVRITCEGRSLRYYYWNWYQQKPGQAPILVIYGDNNRPSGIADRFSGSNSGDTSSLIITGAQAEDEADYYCSSRDSSGFQVFFGAGTKLTVL the result was 4.5 µM (1 of 3 replicates). The variant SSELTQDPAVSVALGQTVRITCELWSLRYYYANWYQQKPGQAPILVIYGKNNRPVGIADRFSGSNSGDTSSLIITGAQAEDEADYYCSSRDSSGFQVFFGAGTKLTVL showed 59 µM (1 of 3 replicates). The variant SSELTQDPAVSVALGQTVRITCEGCSLRYYYANWYQQKPGQAPILVIYGKNNRPFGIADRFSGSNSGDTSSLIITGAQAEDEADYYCSSRDSSGGQVFFGAGTKLTVL gave 20 µM (1 of 3 replicates). The variant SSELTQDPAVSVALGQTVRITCEGVSLAYYYANWYQQKPGQAPILVIYGKPNRPSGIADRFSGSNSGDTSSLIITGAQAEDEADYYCSSRDSSGFQVFFGAGTKLTVL gave 8.1 µM (1 of 3 replicates). The variant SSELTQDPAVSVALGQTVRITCEGNLLRYYYANWYQQKPGQAPILVIYGKNNRPSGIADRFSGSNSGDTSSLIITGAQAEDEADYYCSSRDSSGFQVFFGAGTKLTVL showed nd (0 of 3 replicates). The variant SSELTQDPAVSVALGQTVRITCEGSSLRYPYANWYQQKPGQAPILVIYGKNNRPSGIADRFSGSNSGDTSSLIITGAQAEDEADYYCSSRDSSGFQVFFGAGTKLTVL showed 520 nM (3 of 3 replicates). The variant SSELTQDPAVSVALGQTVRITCEGHSLRYYYANWYQQKPGQAPILVIYGKNNRPSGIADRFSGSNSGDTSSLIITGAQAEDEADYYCSSRDSSGFQVFFGAGTKLTVL showed 82 nM (3 of 3 replicates).

With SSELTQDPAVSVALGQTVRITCEGLSLRYYYANWYQQKPGQAPILVIYGKNNRPLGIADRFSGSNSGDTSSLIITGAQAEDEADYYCSSRDSSGAQVFFGAGTKLTVL the result was 150 nM (3 of 3 replicates). With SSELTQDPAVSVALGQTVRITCWGWSLRYYYANWYQQKPGQAPILVIYGKNNRPQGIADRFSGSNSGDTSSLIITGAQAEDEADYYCSSRDSSGFQVFFGAGTKLTVL the result was nd (0 of 3 replicates). The variant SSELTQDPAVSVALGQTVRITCEGETCRYYYANWYQQKPGQAPILVIYGKNNRPSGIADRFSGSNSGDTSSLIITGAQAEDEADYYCSSRDSSGFQVFFGAGTKLTVL gave 2.0 µM (1 of 3 replicates). The variant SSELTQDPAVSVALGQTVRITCEGGSLRYYYANWYQQKPGQAPILVIYGKNNRMSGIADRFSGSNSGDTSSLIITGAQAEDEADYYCRSRDSSGFQVFFGAGTKLTVL gave 22 µM (2 of 3 replicates). The variant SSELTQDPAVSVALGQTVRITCEGKNLLYYYANWYQQKPGQAPILVIYGKNNRPSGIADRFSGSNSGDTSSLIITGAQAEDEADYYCSSRDSSGFQVFFGAGTKLTVL showed 270 nM (3 of 3 replicates). For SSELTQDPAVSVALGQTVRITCEGKSLRYYYANWYQQKPGQAPILVIYGKNNRPSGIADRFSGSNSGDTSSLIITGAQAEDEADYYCSSRDSSGMQVPFGAGTKLTVL, the assay gave 580 nM (3 of 3 replicates). The variant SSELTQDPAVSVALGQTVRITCEGYSLYYYYANWYQQKPGQAPILVIYGKNNRPSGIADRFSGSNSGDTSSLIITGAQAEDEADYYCSSRDSSGFKVFFGAGTKLTVL gave 7.2 µM (3 of 3 replicates). The variant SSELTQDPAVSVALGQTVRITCEGVSIRYYYANWYQQKPGQAPILVIYGKDNRPSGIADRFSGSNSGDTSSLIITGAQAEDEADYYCSSRDSSGFQVFFGAGTKLTVL showed 780 nM (3 of 3 replicates). The variant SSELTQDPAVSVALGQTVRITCEGNYLRYYYANWYQQKPGQAPILVIYGKNNRPSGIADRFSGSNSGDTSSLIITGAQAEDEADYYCSSRDSRGFQVFFGAGTKLTVL gave 4.1 µM (3 of 3 replicates).

For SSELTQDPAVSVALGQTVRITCEGFSLRYYYFNWYQQKPGQAPILVIYGKNNRPSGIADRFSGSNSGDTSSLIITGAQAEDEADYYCSSRDSSGGQVFFGAGTKLTVL, the assay gave nd (0 of 3 replicates). The variant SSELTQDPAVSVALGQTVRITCEGNSLRYYYCNWYQQKPGQAPILVIYGKNNRPSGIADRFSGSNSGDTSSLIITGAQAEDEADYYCSSRDSHGFQVFFGAGTKLTVL showed 1.5 µM (3 of 3 replicates). The variant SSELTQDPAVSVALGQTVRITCEGVSLRYYYANWYQQKPGQAPILVIYGKNNRPSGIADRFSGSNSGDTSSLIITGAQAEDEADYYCSSKISSGFQVFFGAGTKLTVL gave 40 µM (1 of 3 replicates).

Excerpt, the final 3 entries:

The variant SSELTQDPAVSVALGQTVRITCEGFSLRYYYFNWYQQKPGQAPILVIYGKNNRPSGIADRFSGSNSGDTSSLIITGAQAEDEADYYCSSRDSSGGQVFFGAGTKLTVL showed nd (0 of 3 replicates).
The variant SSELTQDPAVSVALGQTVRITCEGNSLRYYYCNWYQQKPGQAPILVIYGKNNRPSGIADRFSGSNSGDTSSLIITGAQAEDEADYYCSSRDSHGFQVFFGAGTKLTVL showed 1.5 µM (3 of 3 replicates).
The variant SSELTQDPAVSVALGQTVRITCEGVSLRYYYANWYQQKPGQAPILVIYGKNNRPSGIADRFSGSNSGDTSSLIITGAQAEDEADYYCSSKISSGFQVFFGAGTKLTVL showed 40 µM (1 of 3 replicates).